Reference: patent EP3970494A1 (priority 2020, dated 2022)

Assays:
Phakopsora pachyrhizi [1] = assay: Protective control of soybean rust on soybeans, inoculation six days after treatment (PHAKPA P6); type: in vivo; conditions: soybean seedlings inoculated six days after treatment, strain with F129L in cytochrome b, % diseased leaf area, untreated controls usually higher than 85 %; for PHAKPA Disease level (%) P6 at 4 ppm: 4 ppm spray; for PHAKPA Disease level (%) P6 at 16 ppm: 16 ppm spray
Phakopsora pachyrhizi [2] = assay: Protective control of soybean rust on soybeans, inoculation 2 days after treatment (PHAKPA P2); type: in vivo; conditions: soybean seedlings inoculated 2 days after treatment, strain with F129L in cytochrome b, % diseased leaf area, untreated controls usually higher than 85 %; for PHAKPA Disease level (%) P2 at 4 ppm: 4 ppm spray; for PHAKPA Disease level (%) P2 at 16 ppm: 16 ppm spray

SMILES	PHAKPA Disease level (%) P6 at 4 ppm (Phakopsora pachyrhizi [1]) [%]	PHAKPA Disease level (%) P6 at 16 ppm (Phakopsora pachyrhizi [1]) [%]	PHAKPA Disease level (%) P2 at 4 ppm (Phakopsora pachyrhizi [2]) [%]	PHAKPA Disease level (%) P2 at 16 ppm (Phakopsora pachyrhizi [2]) [%]
CO/N=C(/C(=O)OC)c1cccc(C)c1CO/N=C(\C)c1cc(-c2ccccc2)on1 [Example 21]	90	17	87	15
CNC(=O)/C(=N/OC)c1cccc(C)c1CO/N=C(\C)c1cccc(C(F)F)n1 [Example 10]	87	11	73	7
CNC(=O)/C(=N/OC)c1cccc(C)c1CO/N=C(\C)c1ncsc1C(F)(F)F [Example 41]	83	47	63	6
CNC(=O)/C(=N/OC)c1cccc(C)c1CO/N=C(\C)c1cnn(C)c1 [Example 142]	100	100	100	100
CNC(=O)/C(=N/OC)c1cccc(C)c1CO/N=C(\C)c1ccc(C#CC2CC2)nc1 [Example 69]	87	57	77	50
CNC(=O)/C(=N/OC)c1cccc(C)c1CO/N=C(\C)c1cc(/C(C)=N/OC)ccn1 [Example 30, (2E)-2-Methoxyimino-2-[2-[[(E)-1-[4-[(E)-N-methoxy-C-methyl-carbonimidoyl]-2-pyridyl]ethylideneamino]oxymethyl]-3-methyl-phenyl]-N-methyl-acetamide]	45	13	19	2
CO/N=C(/C(=O)OC)c1cccc(C)c1CO/N=C(\C)c1cc(C#N)ccn1 [Example 54]	95	14	95	6
CNC(=O)/C(=N/OC)c1cccc(C)c1CO/N=C(\C)c1ccc(C#CC2CC2)cn1 [Example 112]	40	3	18	2
CO/N=C(/C(=O)OC)c1cccc(C)c1CO/N=C(\C)c1cccc(F)n1 [Example 106]	93	77	93	70
CO/N=C(/C(=O)OC)c1cccc(C)c1CO/N=C(\C)c1cnc(C)c(F)c1 [Example 100]	100	97	100	100
CNC(=O)/C(=N/OC)c1cccc(C)c1CO/N=C(\C)c1ccncc1 [Example 134]	82	80	85	70
CNC(=O)/C(=N/OC)c1cccc(C)c1CO/N=C(\C)c1cc(C#N)ccn1 [Example 55]	75	33	25	5
CO/N=C(/C(=O)OC)c1cccc(C)c1CO/N=C(\C)c1cc(C#N)cc(Cl)n1 [Example 64]	63	12	60	30
CO/N=C(/C(=O)OC)c1cccc(C)c1CO/N=C(\C)c1cc2ccccc2cn1 [Example 66]	57	23	60	38
CNC(=O)/C(=N/OC)c1cccc(C)c1CO/N=C(\C)c1cc(N2CC(F)(F)C2)ccn1 [Example 90]	70	67	95	95
CO/N=C(/C(=O)OC)c1cccc(C)c1CO/N=C(\C)c1cscn1 [Example 126]	100	93	100	87
C=Cc1cnc(/C(C)=N/OCc2c(C)cccc2/C(=N\OC)C(=O)OC)s1 [Example 143]	100	100	100	100
